The values that follow are results of earlier work, collected in patent publication US20260166128A1, “HUMAN AMYLIN ANALOG, AND DERIVATIVE THEREOF AND USE THEREOF” (priority 2022, published 2026).

For the data set the following is noted: background statement; cited from earlier work.

Molecules are shown by their SMILES.

As to `CC[C@H](C)[C@H](NC(=O)[C@@H]1CCCN1C(=O)CNC(=O)[C@H](Cc1ccccc1)NC(=O)[C@H](CC(N)=O)NC(=O)[C@H](CC(N)=O)NC(=O)[C@H](CO)NC(=O)[C@H](CO)NC(=O)[C@H](Cc1c[nH]cn1)NC(=O)[C@@H](NC(=O)[C@H](CC(C)C)NC(=O)[C@H](Cc1ccccc1)NC(=O)[C@H](CC(N)=O)NC(=O)[C@H](C)NC(=O)[C@H](CC(C)C)NC(=O)[C@H](CCCNC(=N)N)NC(=O)[C@H](CCC(N)=O)NC(=O)[C@@H](NC(=O)[C@H](C)NC(=O)[C@@H]1CSSC[C@H](NC(=O)[C@@H](N)CCCCN)C(=O)N[C@@H](CC(N)=O)C(=O)N[C@@H]([C@@H](C)O)C(=O)N[C@@H](C)C(=O)N[C@@H]([C@@H](C)O)C(=O)N1)[C@@H](C)O)C(C)C)C(=O)N[C@@H](CC(C)C)C(=O)N1CCC[C@H]1C(=O)N1CCC[C@H]1C(=O)N[C@H](C(=O)N[C@@H](CC(N)=O)C(=O)N[C@H](C(=O)NCC(=O)N[C@@H](CO)C(=O)N[C@@H](CC(N)=O)C(=O)N[C@H](C(=O)N[C@@H](Cc1ccc(O)cc1)C(N)=O)[C@@H](C)O)C(C)C)[C@@H](C)O` [Pramlintide], the half-life entry is reported as “about 48 minutes”.
